One compound from patent US9629826B2, “CAI-based systems and methods for the localized treatment of uveitis” (Gen Pharma Holdings, LLC., priority 2014, dated 2017) can be followed below.

For the series the following is noted: single 5 mg peribulbar injection; assuming a vitreous volume of 4-5 ml.

The structures appear in SMILES notation.

On to `C[C@@H]1C[C@H]2[C@@H]3CCC4=CC(=O)C=C[C@]4(C)[C@@]3(F)[C@@H](O)C[C@]2(C)[C@@]1(O)C(=O)CO` [Dexamethasone], for which the vitreous concentration was in the range of 0.10 to 0.13 µM.
